From PubChem BioAssay AID602248 (The Scripps Research Institute Molecular Screening Center, 2012) come the findings set out here.

The list shows a part of the results, in another mix than the full data. Active and inactive are the calls of the source. Cut-off read from the data, not from the text of the source: active = activation above about 15%; inactive = the rest.

The assay in a line: counter-screen for M1 agonists: effect in parental CHO-K1 cells (AID 602248).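 Note: untransfected CHO-K1 host cells lacking M1 receptor as counterscreen.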 As to conditions: Fluo-8 calcium fluorescence, at 3 µM, active compounds read high, scaled to maximal ATP response, vehicle zero.
With `CCOc1ccc(C)cc1CN(CCCl)CCCl`, the activation is inactive: 3.9%.

With `O=C(NCC1(N2CCCCC2)CCCCC1)c1ccco1`, the activation was inactive: 0.23%. With `Cn1c(=O)[nH]cc(N(CCCl)CCCl)c1=O`, the activation was inactive: 0.1%. Take `CN(C)c1ccc(C(=O)NCC2(N3CCCCC3)CCCCC2)cc1`: the activation was inactive: 1.03%.

With `Cc1ccccc1NC1(C#N)CCN(Cc2ccccc2)CC1`, the activation was inactive: 1.22%. Regarding `CC(C)(C)n1nnnc1C(c1ccnc2ccccc12)N1CCC(n2c(=O)[nH]c3ccccc32)CC1` (stereo not drawn), the activation was inactive: 4.23%.

Consider `CCN1CCC(Nc2cccc(F)c2)CC1`, for which the activation is inactive: -0.14%. Consider `COc1ccc(C(c2nnnn2C2CCCCC2)N2CCC(n3c(=O)[nH]c4ccccc43)CC2)cc1` (stereo not drawn), for which the activation was inactive: 0.23%. Take `Cc1ccc(C(=O)NCC2(N3CCCCC3)CCCCC2)o1`: the activation is inactive: 0.28%. With `Fc1ccccc1NC1CCN(Cc2ccccc2)CC1`, the activation is inactive: -0.45%.

With `Cc1ccc(NC2(C#N)CCN(Cc3ccccc3)CC2)cc1`, the activation was inactive: -0.06%. Take `CC(=O)N(c1ccccc1)C1CCNCC1`: the activation was inactive: 1.33%. On to `COc1cccc(C(c2nnnn2C2CCCCC2)N2CCC(n3c(=O)[nH]c4ccccc43)CC2)c1OC` (stereo not drawn), for which the activation was inactive: 5.21%.

`CCC(c1nnnn1C1CCCCC1)N1CCC(n2c(=O)[nH]c3ccccc32)CC1` (stereo not drawn): the activation is inactive: 3.89%. The figure for `O=c1[nH]c2ccccc2n1C1CCN(C(c2ccnc3ccccc23)c2nnnn2C2CCCCC2)CC1` (stereo not drawn) is inactive: 3.76%. The figure for `COc1cc(OC)cc(C(=O)NCC2(N3CCCCC3)CCCCC2)c1` is inactive: 1.99%; for `CN1CCC(Nc2ccc(Cl)cc2)CC1` it is inactive: 0.93%; for `COc1cccc(C(=O)N(c2cc(C)cc(C)c2)C2CCN(C(=O)OC(C)(C)C)CC2)c1` it is inactive: -1.55%. With `COc1cccc(C(c2nnnn2C2CCCC2)N2CCC(n3c(=O)[nH]c4ccccc43)CC2)c1OC` (stereo not drawn) the figure was inactive: 4.72%; with `COc1cc(OC)cc(C(=O)NCC2(N3CCOCC3)CCCCC2)c1`, inactive: 1.41%. As for `CCC(CO)(C(=O)OC1CN2CCC1CC2)c1ccccc1` (stereo not drawn), the activation is inactive: -0.27%. On to `CC(C)(C)OC(=O)N1CCC(Nc2ccccc2)CC1`, for which the activation was inactive: 2.04%. As to `NN(c1ccccc1)C1CCN(CCc2ccccc2)CC1`, the activation is inactive: 0.15%. Take `O=C(O)C1(Nc2ccccc2)CCN(Cc2ccccc2)CC1`: the activation was inactive: 2.55%. The figure for `CCCOc1ccc(C(=O)NCC2(N(C)C)CCCCC2)cc1` is inactive: 3.01%; for `O=c1[nH]c2ccccc2n1C1CCN(C(c2cc3ccccc3o2)c2nnnn2C2CCCC2)CC1` (stereo not drawn) it is inactive: 4.22%. The figure for `CCOc1ncccc1C(=O)NCC1(N2CCOCC2)CCCCC1` is inactive: 0.17%; for `CN1CCC(Nc2ccc(F)c(Cl)c2)CC1` it is inactive: 0.84%. On to `O=C(OC1CN2CCC1CC2)C1c2ccccc2C=Cc2ccccc21` (stereo not drawn), for which the activation was inactive: 0.54%. Take `O=c1[nH]c2ccccc2n1C1CCN(C(c2cccs2)c2nnnn2C2CCCC2)CC1` (stereo not drawn): the activation was inactive: 5.12%.

With `CCCCn1nnnc1C(c1cccc(OC)c1OC)N1CCC(n2c(=O)[nH]c3ccccc32)CC1` (stereo not drawn), the activation was inactive: 3.82%.

In the case of `COc1cccc(C(c2nnnn2C(C)(C)C)N2CCC(n3c(=O)[nH]c4ccccc43)CC2)c1OC` (stereo not drawn), the activation was inactive: 2.38%. As to `CCOC(=O)N1CCC(Nc2ccc(C)cc2)CC1`, the activation is inactive: -0.61%. On to `N/C(=N\O)c1c(N)no[n+]1[O-]`, for which the activation was inactive: 0.51%. In the case of `O=c1[nH]c2ccccc2n1C1CCN(C(c2cccs2)c2nnnn2C2CCCCC2)CC1` (stereo not drawn), the activation was inactive: 7.13%. With `COc1ccc(C(=O)NCC2(N3CCOCC3)CCCCC2)cc1OC`, the activation is inactive: 0.32%. The figure for `O=c1[nH]c2ccccc2n1C1CCN(C(c2ccnc3ccccc23)c2nnnn2C2CCCC2)CC1` (stereo not drawn) is inactive: 4.95%.

For the compound `CCCCn1nnnc1C(c1ccccc1)N1CCC(n2c(=O)[nH]c3ccccc32)CC1` (stereo not drawn), the activation was inactive: 4.22%. On to `COc1cc(C(=O)NCC2(N3CCOCC3)CCCCC2)cc(OC)c1C`, for which the activation is inactive: 0.07%. Turning to `O=C(NCC1(N2CCOCC2)CCCCC1)c1cc(Br)ccc1Cl`, the activation is inactive: -0.86%. In the case of `CC(C)(C)n1nnnc1C(c1cccc2ccccc12)N1CCC(n2c(=O)[nH]c3ccccc32)CC1` (stereo not drawn), the activation was inactive: 2.21%. On to `CN(C)C1(CNC(=O)c2cccc(C#N)c2)CCCCC1`, for which the activation is inactive: -0.33%. Regarding `c1ccc(CN2CCC(Nc3ccccc3)CC2)cc1`, the activation is inactive: 0.24%.

In the case of `Cc1cc(N(CCCl)CCCl)ccc1C=O`, the activation was inactive: 1.86%. For `O=c1[nH]c2ccccc2n1C1CCN(C(c2ccccc2)c2nnnn2C2CCCC2)CC1` (stereo not drawn), the activation was inactive: 5.16%. On to `CCCN1CCC(Nc2cc(OC)cc(OC)c2)CC1`, for which the activation is inactive: 0.91%. As to `N#Cc1ccc(C(=O)NCC2(N3CCCCC3)CCCCC2)cc1`, the activation was inactive: -0.44%. Consider `CC(C)(C)OC(=O)N1CCC(N(C(=O)c2ccccc2)c2ccc(Cl)cc2)CC1`, for which the activation was inactive: -1.13%.
